These results are taken from ChEMBL document CHEMBL3272041, “Quantitative correlations between albumin binding constants and chromatographic Rm values of phenothiazine derivatives” (J Med Chem, 1977).

Sequences of proteins named here, by UniProt entry; tags and fusion partners are left off.
UniProt P02769, whole entry: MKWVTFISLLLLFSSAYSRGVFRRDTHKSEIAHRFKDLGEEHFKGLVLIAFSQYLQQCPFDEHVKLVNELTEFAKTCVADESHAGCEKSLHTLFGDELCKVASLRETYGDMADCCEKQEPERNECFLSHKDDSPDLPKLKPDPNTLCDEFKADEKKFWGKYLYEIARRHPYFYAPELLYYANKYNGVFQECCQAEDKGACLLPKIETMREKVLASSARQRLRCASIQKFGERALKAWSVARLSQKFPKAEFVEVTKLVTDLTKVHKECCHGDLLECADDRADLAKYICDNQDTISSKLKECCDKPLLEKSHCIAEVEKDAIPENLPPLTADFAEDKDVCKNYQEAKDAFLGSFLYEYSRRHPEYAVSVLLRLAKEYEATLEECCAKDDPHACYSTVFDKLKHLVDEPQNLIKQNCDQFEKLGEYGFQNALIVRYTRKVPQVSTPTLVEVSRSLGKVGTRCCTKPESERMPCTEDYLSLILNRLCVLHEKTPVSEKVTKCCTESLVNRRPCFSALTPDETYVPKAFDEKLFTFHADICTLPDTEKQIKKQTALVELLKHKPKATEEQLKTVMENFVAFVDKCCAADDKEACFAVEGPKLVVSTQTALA

As a reminder, the logP is the decadic logarithm of the partition coefficient of the neutral form, usually between octanol and water. Read a low logP as a more hydrophilic compound.

Data set [1] can be described thus: Octanol-water partition coefficient, log P of the compound. The class given is physicochemical.
Data set [2] deals with T1, Albumin (Bos taurus, UniProt P02769). The experiment in a line: Binding affinity to bovine serum albumin. The class given is ADME. The note with it: cattle, isolated protein.
Data set [3] concerns the target T1, Albumin. The experiment in a line: Binding affinity to bovine serum albumin assessed as intrinsic binding constant. The format is ADME. The note with it: cattle, isolated protein.
In data set [4] the target is T1, Albumin. The experiment in a line: Binding affinity to bovine serum albumin by circular dichroic probe technique. The class given is ADME. The note with it: cattle, isolated protein. The gist of the method: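 Displacement of sulfaethidole from its primary BSA site, followed by circular dichroism. Solutions were in 0.054 M sodium phosphate, pH 7.44 (25 °C), isotonic with NaCl. Reagent concentrations were 1.45 × 10−5 and 2.11 × 10−5 M. Spectra were scanned from 420 to 265 nm in 10-mm cells, with ellipticity read at 280–286 nm, corrected for drug effect on BSA. Apparent K came from the Klotz equation (n = 1) and was extrapolated to zero drug concentration.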

`CN(C)CCCN1c2ccccc2Sc2ccc(Cl)cc21` [CHLORPROMAZINE] registered a logP in data set [1] of 5.35. In addition, the results for the “log K” value at Albumin [2] and on Albumin [3] were 4.32 and 3.79, respectively.

Turning to `OCCN1CCN(CCCN2c3ccccc3Sc3ccc(C(F)(F)F)cc32)CC1` [FLUPHENAZINE], the logKa on Albumin [4] is recorded as 4.41.

For the compound `CN1CCN(CCCN2c3ccccc3Sc3ccc(C(F)(F)F)cc32)CC1` [TRIFLUOPERAZINE], the “log K” value at Albumin [3] was determined as 3.8.
